Data on one molecule can be found in ChEMBL document CHEMBL4219212, “Synthesis of 3-(3-hydroxyphenyl)pyrrolidine dopamine D3 receptor ligands with extended functionality for probing the secondary binding pocket” (Bioorg Med Chem Lett, 2018).

By UniProt entry, the sequences of proteins in these tests, tags left out.
UniProt P14416, whole entry: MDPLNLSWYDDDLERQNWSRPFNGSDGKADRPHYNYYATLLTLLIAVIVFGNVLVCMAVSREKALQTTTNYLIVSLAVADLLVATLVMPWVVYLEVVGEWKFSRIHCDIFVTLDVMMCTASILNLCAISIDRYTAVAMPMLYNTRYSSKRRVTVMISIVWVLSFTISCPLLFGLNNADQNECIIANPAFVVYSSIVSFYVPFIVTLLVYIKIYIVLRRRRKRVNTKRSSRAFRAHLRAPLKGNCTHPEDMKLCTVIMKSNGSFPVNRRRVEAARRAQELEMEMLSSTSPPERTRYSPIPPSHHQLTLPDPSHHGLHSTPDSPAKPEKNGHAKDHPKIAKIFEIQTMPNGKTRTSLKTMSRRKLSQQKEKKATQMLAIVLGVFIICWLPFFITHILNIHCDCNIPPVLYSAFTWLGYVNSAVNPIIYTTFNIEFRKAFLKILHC

Usually Ki stands for the dissociation constant of the complex between target and ligand, obtained from inhibition or displacement. A low value points to a stronger hold on the target.

This test deals with D(2) dopamine receptor (Homo sapiens, UniProt P14416). Description: Binding affinity to human dopamine D2 receptor.

Turning to `CCCN1CCC[C@@H](c2cccc(O)c2)C1` [PRECLAMOL], the affinity, expressed as Ki, was 137 nM.
